Laboratory results: patent US20130012466A1 (priority 2006, published 2013)

Test system: ADR-RES
Assay: Cytotoxicity assay (cell titer-glo and calcein AM), ADR-RES

Row | Compound | IC50 (read-out: Cytotoxicity IC50, NCI/ADR RES, calcein, NCI/ADR RES, calcein AM readout, % error in parentheses) | IC50 (Homo sapiens, read-out: IC50 (ADR-RES))
1 | COc1cccc2c1C(=O)c1c(O)c3c(c(O)c1C2=O)C[C@@](O)(C(=O)CO)C[C@@H]3O[C@H]1C[C@H](N)[C@H](O)[C@H](C)O1 [doxorubi] | 0.174 µM | –
2 | COc1cccc2c1C(=O)c1c(O)c3c(c(O)c1C2=O)C[C@@](O)(C(=O)CO)C[C@@H]3O[C@H]1C[C@H](N)[C@H](O)[C@H](C)O1 [doxorubicin, reference compound] | – | 0.174 µM

Read-outs that look alike come from different tables or passages of the source.
